The target in the test is HPV16 quasivirus capsid containing L1 and L2 proteins and encapsidating a cottontail rabbit papillomavirus genome (CRPV) (Human papillomavirus type 16 (L1 from HPV16 sheLL plasmid; isolate not named)) (UniProt P03101). The test is described as follows: cryo-EM structure.

“Fab of the neutralizing monoclonal antibody H16.U4” came in with a Fab density relative to capsid density of 70%, a sites per capsid occupied on average (sites per capsid) of 42 and a stoichiometry N (Fab binding sites per capsid) of 60.

The record behind these values is paper PMC5744149.
